Measured values from article PMC7723054.
The list shows a part of the results.

T1: LIN28A (human?, UniProt Q9H9Z2 1-209)
T1 sequence: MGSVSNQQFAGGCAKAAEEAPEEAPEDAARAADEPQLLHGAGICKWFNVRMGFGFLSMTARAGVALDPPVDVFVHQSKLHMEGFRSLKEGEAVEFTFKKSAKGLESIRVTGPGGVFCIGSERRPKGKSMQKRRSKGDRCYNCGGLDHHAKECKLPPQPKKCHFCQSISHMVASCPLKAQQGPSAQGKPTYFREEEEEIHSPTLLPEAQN

T2: CIRBP (Homo sapiens, UniProt Q14011 1-172)
T2 sequence: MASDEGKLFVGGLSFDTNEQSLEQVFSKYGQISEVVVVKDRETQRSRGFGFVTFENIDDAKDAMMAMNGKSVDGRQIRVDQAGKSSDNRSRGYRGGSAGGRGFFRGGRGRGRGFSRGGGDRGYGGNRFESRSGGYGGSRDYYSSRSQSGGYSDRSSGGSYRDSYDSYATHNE

T3: DHX36 (Homo sapiens, UniProt Q9H2U1 1-1008)
T3 sequence: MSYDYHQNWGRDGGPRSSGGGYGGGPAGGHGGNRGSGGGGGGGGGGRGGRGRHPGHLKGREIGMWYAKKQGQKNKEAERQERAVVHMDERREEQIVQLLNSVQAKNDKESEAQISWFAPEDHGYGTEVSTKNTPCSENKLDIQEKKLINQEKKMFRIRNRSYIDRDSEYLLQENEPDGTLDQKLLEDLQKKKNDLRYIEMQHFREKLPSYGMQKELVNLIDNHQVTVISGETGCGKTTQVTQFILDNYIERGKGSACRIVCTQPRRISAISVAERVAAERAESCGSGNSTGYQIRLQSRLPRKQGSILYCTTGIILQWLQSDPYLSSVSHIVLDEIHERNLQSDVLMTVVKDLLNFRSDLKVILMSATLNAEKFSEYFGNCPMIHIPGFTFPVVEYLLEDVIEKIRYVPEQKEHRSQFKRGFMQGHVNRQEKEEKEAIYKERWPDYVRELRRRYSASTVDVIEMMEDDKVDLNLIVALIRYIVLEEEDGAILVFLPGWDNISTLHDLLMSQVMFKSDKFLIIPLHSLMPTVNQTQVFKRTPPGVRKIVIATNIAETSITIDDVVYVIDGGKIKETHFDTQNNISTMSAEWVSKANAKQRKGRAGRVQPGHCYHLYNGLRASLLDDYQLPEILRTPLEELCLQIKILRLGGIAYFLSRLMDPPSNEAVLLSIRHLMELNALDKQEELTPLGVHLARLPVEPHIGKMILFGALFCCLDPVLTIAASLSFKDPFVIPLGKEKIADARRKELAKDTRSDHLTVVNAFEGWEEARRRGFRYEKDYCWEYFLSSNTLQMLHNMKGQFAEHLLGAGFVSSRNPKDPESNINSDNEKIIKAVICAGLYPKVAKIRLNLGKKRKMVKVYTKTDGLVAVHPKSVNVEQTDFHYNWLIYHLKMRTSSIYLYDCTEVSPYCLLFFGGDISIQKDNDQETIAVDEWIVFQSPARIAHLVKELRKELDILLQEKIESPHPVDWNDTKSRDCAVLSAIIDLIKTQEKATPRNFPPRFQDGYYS

B1: hsa-mir-432 (structured_RNA)
RNA: GGGAAUUUGAGGGCGUCCAACGCACUAGGGUGUACGAAGUUUCAGCUGGGUGGAUCCUCUAUUUCCUUACGUGGGCCACUGGGCUGAAGCUUCGUGCAC
B2: hsa-mir-1254-2 (structured_RNA)
RNA: GGGAGAAGGUACCCGUUCCCAAGCGAUGGGUGUACGAAGUUUCAGCCAGUGAGCUAUGAUCAUGUCCCUGGCUGAAGCUUCGUGCAC
B3: hsa-mir-3178 (structured_RNA)
RNA: GGGAAGGUCAGAUUACGCAGUGGAACGGGGUGUACGAAGUUUCAGCAUCGGUCGAGAGCGUCCUGGCUGAUGCUGAAGCUUCGUGCAC
B4: hsa-mir-17 (structured_RNA)
RNA: GGGAAGAGGGCAGCUACGCCUUCGAAACGGUGUACGAAGUUUCAGCAGGUAGUGAUAUGUGCAUCUACUGCUGAAGCUUCGUGCAC
B5: NEAT1_ParasoR_ID19 (structured_RNA)
RNA: GGGAAAAGUGUCUAGUACGAAUGACCAUGGUGUACGAAGUUUCAGCCCCCUAGUCUUUGGUAACCUUUGUUAUACUGGUAAACUUUGUUGUGCUCUCUGUCUGUGUGAAUUUGCCUAUUCUAGGGGGCUGAAGCUUCGUGCAC
B6: hsa-mir-2278 (structured_RNA)
RNA: GGGAGCUGGCUUGUCCGUUUGUUGGAAAGGUGUACGAAGUUUCAGCCUGGGGACUGUGUGGACUGGUAUCACCCAGGCUGAAGCUUCGUGCAC
B7: hsa-mir-6732 (structured_RNA)
RNA: GGGAAAUAGGAUGGGGUCCCGAAAUCUAGGUGUACGAAGUUUCAGCCUGGCCAUCAGUGUGGGCUAACGCUGAAGCUUCGUGCAC
B8: hsa-mir-4794 (structured_RNA)
RNA: GGGAAAGGUUACCGUGGUAAGAAGAACCGGUGUACGAAGUUUCAGCCUGUAUGUCCUAACAGUGCUUGUAGGCUGAAGCUUCGUGCAC
B9: hsa-mir-29c (structured_RNA)
RNA: GGGAAAUGGACGAAUAAGUAUAACGGCAGGUGUACGAAGUUUCAGCGUUCAGAGUCUGUUUUUGUCUAGCGCUGAAGCUUCGUGCAC
B10: hsa-mir-520g_520h (structured_RNA)
RNA: GGGAAAGACCAUAGCGAGCUUGGAAUAGGGUGUACGAAGUUUCAGCCUGUUUGUUGUCUGAGAAAAAACAGCUGAAGCUUCGUGCAC
B11: NEAT1_ParasoR_ID10 (structured_RNA)
RNA: GGGACAUAAAAUCUGUGGCGGCGUCUUUGGUGUACGAAGUUUCAGCCAUAUGUUUUCAAUUCUCUCAUUAUAUACCUAGGAGUAGAAUUACUGGGUCAUAUGGCUGAAGCUUCGUGCAC
B12: hsa-mir-3683 (structured_RNA)
RNA: GGGAAUCAAGAACGGGGUAUGAAUUAUGGGUGUACGAAGUUUCAGCAUCAUCUCUCCCUUGGAUGCUGAAGCUUCGUGCAC
B13: hsa-mir-548e (structured_RNA)
RNA: GGGACGGGGCGCAAACUAUGAUUAUAUCGGUGUACGAAGUUUCAGCUUUUGCUAUUACUUUUAAAGGCAAAAGCUGAAGCUUCGUGCAC
B14: hsa-mir-7151 (structured_RNA)
RNA: GGGAAGAAUAGCGGGUCGGCGAAUAGACGGUGUACGAAGUUUCAGCAUUGGCUUGGAUUCUGCAAAGCCUGCUGAAGCUUCGUGCAC
B15: hsa-mir-1263 (structured_RNA)
RNA: GGGAGUGCAUUCAGAACGAAUCGUAUGUGGUGUACGAAGUUUCAGCGAGUAUUUUAAUACUGGCAUACUCGCUGAAGCUUCGUGCAC
B16: hsa-mir-4632 (structured_RNA)
RNA: GGGAACGUCCCAUCGUGCCUAAAGAGAUGGUGUACGAAGUUUCAGCGGCGGAGGCAGGCGUGACCGUUUGCCGCUGAAGCUUCGUGCAC
B17: hsa-mir-148a (structured_RNA)
RNA: GGGAAUCCUACCAGGGCUGUUAAAUGAUGGUGUACGAAGUUUCAGCCCGACUCUGAGUAUGAUAGAAGUCGCUGAAGCUUCGUGCAC
B18: hsa-mir-643 (structured_RNA)
RNA: GGGAAAACGGCUCUUGGCAAGAUCCACCGGUGUACGAAGUUUCAGCAAGUAGUUGGCGUCUUCAGAGACACUUGCUGAAGCUUCGUGCAC
B19: hsa-mir-3130-2 (structured_RNA)
RNA: GGGAAGAGGUUUCAUCGGCGGACGCUAGGGUGUACGAAGUUUCAGCCAGCCUUGACAACAGGCUGGCUGAAGCUUCGUGCAC
B20: hsa-mir-3914-1 (structured_RNA)
RNA: GGGAGACCUCACCAUCGGGAGUAUUGGUGGUGUACGAAGUUUCAGCCCUUCUAAUGAGUAUGCUUAACUUGGUAGAAGGGCUGAAGCUUCGUGCAC
B21: hsa-mir-638 (structured_RNA)
RNA: GGGCAAGGAUGCCUCUCAGCCAAUAAUGGGUGUACGAAGUUUCAGCUAGGGCGCGGAGGGCGGACCGGGAAGCUGAAGCUUCGUGCAC
B22: hsa-mir-3678 (structured_RNA)
RNA: GGGACCAACUUAUGCUAGUGCAGCGUGGGGUGUACGAAGUUUCAGCGCUGUGUUGAAUGAUUGGUGAGUUUGUUUGCUCAUUGAUUGAAUCACUGCGCUGAAGCUUCGUGCAC
B23: hsa-mir-648 (structured_RNA)
RNA: GGGACACGGUAGGGAAACCCACCAACUAGGUGUACGAAGUUUCAGCUGGUGGGGGCCGGGGCAGGCCCAGCGAAAGCUGAAGCUUCGUGCAC
B24: hsa-mir-4726 (structured_RNA)
RNA: GGGACGUGAUGGGUGCUCAGCCCAAAAUGGUGUACGAAGUUUCAGCGAGUGGUCGGGUCGACUGAACCGCUGAAGCUUCGUGCAC
B25: hsa-mir-545 (structured_RNA)
RNA: GGGAACCAUACAGGCGUUCCAUGGUAACGGUGUACGAAGUUUCAGCUAGAUGAAUAAAUGAAUGACUCAUCAGCUGAAGCUUCGUGCAC

Columns and labels:
Test in all cases: FOREST: bead pull-down of RNA structure library v1, barcode microarray; U1A/LIN28A: 20 mM HEPES pH 7.5, 80 mM KCl, 20 mM NaCl, 10% glycerol, 2 mM DTT, 0.1 ug/uL BSA, 4 C; BG4/CIRBP/DHX36: 10 mM Tris-HCl pH 7.5, 100 mM KCl (or LiCl),; high values mean tight binding
LIN28A = target: T1, LIN28A
CIRBP = target: T2, CIRBP
DHX36 = target: T3, DHX36

Row | Binder | binding signal (LIN28A) [z-score] | binding signal (CIRBP) [z-score] | binding signal (DHX36) [z-score]
1 | B1 | 0.643 | 0.49 | 0.606
2 | B2 | 0.641 | 0.307 | -0.459
3 | B3 | 0.639 | 2.55 | 1.06
4 | B4 | 0.638 | -1.16 | 0.802
5 | B5 | 0.633 | -0.661 | -0.382
6 | B6 | 0.632 | -0.719 | 0.62
7 | B7 | 0.628 | 1.1 | 0.484
8 | B8 | 0.627 | 0.789 | 0.218
9 | B9 | 0.626 | 0.426 | -0.00171
10 | B10 | 0.624 | -0.722 | 0.174
11 | B11 | 0.622 | -0.882 | 0.489
12 | B12 | 0.617 | -0.0781 | -0.348
13 | B13 | 0.616 | 0.384 | 0.0012
14 | B14 | 0.613 | 1.33 | -0.029
15 | B15 | 0.612 | 0.621 | -0.354
16 | B16 | 0.611 | 1.09 | 1.46
17 | B17 | 0.61 | 0.0289 | -0.748
18 | B18 | 0.604 | 0.658 | 0.198
19 | B19 | 0.599 | 0.141 | -0.0336
20 | B20 | 0.597 | -0.808 | -0.358
21 | B21 | 0.595 | -0.633 | 1.84
22 | B22 | 0.593 | -0.916 | 0.108
23 | B23 | 0.591 | 2.58 | 3.42
24 | B24 | 0.585 | 0.592 | 0.89
25 | B25 | 0.584 | -0.298 | 0.91
